Source: PubChem BioAssay AID2563 (Broad Institute, 2010)
This is a selection; strong and weak results do not stand in their true shares. Some salts and complexes are drawn in separate pieces, as the source files them; their charges need not balance. Active and inactive are the calls of the source.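 How the source made its calls: active means fall in fluorescence gain of 50% or more versus controls, with final raw signal at or below 3038400; inconclusive means same 50% fall but final raw signal above 3038400; inactive means fall in fluorescence gain under 50%.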

Sequences of proteins named here, by UniProt entry; tags and fusion partners are left off.
UniProt Q03530, whole entry: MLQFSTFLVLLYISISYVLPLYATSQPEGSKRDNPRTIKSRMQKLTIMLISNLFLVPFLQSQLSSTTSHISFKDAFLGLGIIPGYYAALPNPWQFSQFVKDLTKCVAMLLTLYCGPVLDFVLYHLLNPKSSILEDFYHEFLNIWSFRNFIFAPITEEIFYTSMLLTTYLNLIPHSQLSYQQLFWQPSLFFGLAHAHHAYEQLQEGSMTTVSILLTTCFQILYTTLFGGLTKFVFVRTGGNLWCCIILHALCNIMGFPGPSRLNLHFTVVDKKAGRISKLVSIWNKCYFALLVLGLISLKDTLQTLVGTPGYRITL

Each compound was assayed against CAAX prenyl protease 2 (Saccharomyces cerevisiae (strain ATCC 204508 / S288c)) (UniProt Q03530) (assay: yeast Rce1p protease inhibitors, primary screen, biochemical, fluorescence, cell-free homogeneous (AID 2563)). Conditions: yeast membranes, quenched prenylated peptide cleavage fluorescence.
`CCCCCOc1ccc(NP(C)(=O)Oc2ccc(Cl)cc2Cl)cc1` (stereo unspecified) was tested, and the outcome was “inactive”. `O=[N+]([O-])c1cc([N+](=O)[O-])c(OC2CCCCC2O)c([N+](=O)[O-])c1` (stereo unspecified) was tested, and the outcome was “inactive”. For `CN(C)C(=O)Oc1noc2ccccc12`, the outcome was “inactive”. For `Cc1ccccc1OP(=O)(Nc1ccccn1)Oc1ccccc1C`, the outcome was “inactive”. `CC(=O)NC(SC(=S)N(CC(C)C)CC(C)C)C(Cl)(Cl)Cl` (stereo unspecified) was tested, and the outcome was “inactive”. For `Cc1ccc(OP(=O)(Nc2ccccn2)Oc2ccc(C)cc2)cc1`, the outcome was “inactive”. In the case of `COC(=O)c1cc2c(s1)N=C(c1ccccc1)N(C)P2(=O)N1CCOCC1` (stereo unspecified), the outcome is reported as “inactive”. In the case of `CCC(=O)N1C2C3N(C(=O)CC)C1C1N(C(=O)CC)C(C(N1C(=O)CC)N3C(=O)CC)N2C(=O)CC`, the outcome is reported as “inactive”. `CCN(CC)CCCOC(=O)C(O)(c1ccccc1)C1CCCCC1` (stereo unspecified) was tested, and the outcome was “inactive”. In the case of `O=C(OC1CN2CCC1CC2)c1ccccc1` (stereo unspecified), the outcome is reported as “inactive”. For `CP(=O)(Nc1ccccc1F)Oc1ccccc1` (stereo unspecified), the outcome was “inactive”. `CC(C)c1ccc(OP(C)(=O)Nc2ccc(SC(F)(F)F)cc2)cc1` (stereo unspecified) was tested, and the outcome was “inactive”. With `CC(C)(C)C(=O)NC(Sc1ccccc1)C(Cl)(Cl)Cl` (stereo unspecified) the outcome was “inactive”. For `CCOc1ccc(C2=NCC(CBr)S2)cc1` (stereo unspecified), the outcome was “inactive”. `O=P1(Nc2nc3ccc(Cl)cc3s2)COc2ccccc2O1` (stereo unspecified) was tested, and the outcome was “inactive”. `CC(=O)Nc1ccc(Oc2c([N+](=O)[O-])cc([N+](=O)[O-])cc2[N+](=O)[O-])cc1` was tested, and the outcome was “inactive”. `CC(=O)Nc1ccc([As](=O)(O)O)c(O)c1` was tested, and the outcome was “inactive”. With `COc1ccc2c(c1O)-c1c(O)c(OC)cc3c1[C@H](C2)[N+](C)(C)CC3.O=[N+]([O-])c1cc([N+](=O)[O-])c([O-])c([N+](=O)[O-])c1[O-]` the outcome was “inactive”. For `O=C(OC1CN2CCC1CC2)c1ccc([N+](=O)[O-])cc1` (stereo unspecified), the outcome was “inactive”. `CC(=O)c1ccc(N2CC2c2ccncc2)cc1` (stereo unspecified) was tested, and the outcome was “inactive”. With `C[C@H]1OP(=O)(Oc2ccccc2)C[C@@H]2O[C@@H]21` (stereo partly specified) the outcome was “inactive”. `C[C@@H]1C=CCP(=O)(Oc2ccccc2)O1` (stereo partly specified) was tested, and the outcome was “inactive”. In the case of `O=C(OCCN1CCN(CCOCc2ccccc2)CC1)C(O)(c1ccccc1)c1ccccc1`, the outcome is reported as “inactive”. For `CCOP(C)(=S)SCC(=O)NC(C)(CC)C(=O)O` (stereo unspecified), the outcome was “inactive”. For `c1nnnn1CCn1cnnn1`, the outcome was “inactive”. For `CP(=O)(Nc1ccc(SC(F)(F)F)cc1)Oc1ccc(F)cc1` (stereo unspecified), the outcome was “inactive”. For `O=P(Nc1nccs1)(c1ccccc1)c1ccccc1`, the outcome was “inactive”. With `CC(C)C(=O)NC(Sc1ccccc1)C(Cl)(Cl)Cl` (stereo unspecified) the outcome was “inactive”. `Cc1ccccc1NP(C)(=O)Nc1ccccc1C` was tested, and the outcome was “inactive”. For `CP(=O)(Nc1ccc2c(c1)OCCO2)Oc1ccccc1` (stereo unspecified), the outcome was “inactive”. For `C[C@H]1OP(=O)(Oc2ccccc2)[C@H](O)[C@H](O)[C@H]1N=[N+]=[N-]` (stereo partly specified), the outcome was “inactive”. With `O=P(Nc1nc2ccccc2s1)(c1ccccc1)c1ccccc1` the outcome was “inactive”. In the case of `CN(C)CCOC(=O)C(O)(c1ccccc1)C1CCCCC1` (stereo unspecified), the outcome is reported as “inactive”. In the case of `COc1ccc(NP(C)(=O)Oc2ccccc2OC)cc1` (stereo unspecified), the outcome is reported as “inactive”. With `COc1ccc(OP(C)(=O)Nc2cccc(Br)c2)cc1` (stereo unspecified) the outcome was “inactive”. In the case of `CN(C)C1(CNC(=O)c2ccc(Cl)c(S(N)(=O)=O)c2)CCCCC1`, the outcome is reported as “inactive”. For `O=P(Nc1ccccn1)(c1ccc(Br)cc1)c1ccc(Br)cc1`, the outcome was “inactive”. With `C(Cc1nn[nH]n1)Cc1nn[nH]n1` the outcome was “inactive”. In the case of `Nc1ccc([As](=O)(O)c2ccc([N+](=O)[O-])cc2)cc1`, the outcome is reported as “inactive”. `O=C(OC1CN2CCC1CC2)c1cccc(Cl)c1` (stereo unspecified) was tested, and the outcome was “inactive”. With `CC(=O)NC(SC(=S)N(C)C)C(Cl)(Cl)Cl` (stereo unspecified) the outcome was “inactive”. `O=[N+]([O-])c1ccc(OP2(=O)COCCO2)cc1` (stereo unspecified) was tested, and the outcome was “inactive”. For `O=[N+]([O-])c1ncn(CCn2cnc([N+](=O)[O-])n2)n1`, the outcome was “inactive”. With `O=[N+]([O-])c1ccc(O)c(/C=N/Nc2ccc([N+](=O)[O-])cc2[N+](=O)[O-])c1` the outcome was “inactive”. `Cc1cc(-c2cccc3ccccc23)c(C)cn1.O=[N+]([O-])c1cc([N+](=O)[O-])c(O)c([N+](=O)[O-])c1` was tested, and the outcome was “inactive”. In the case of `O=[N+]([O-])c1cc([N+](=O)[O-])c(NCC2CCS(=O)(=O)C2)c([N+](=O)[O-])c1` (stereo unspecified), the outcome is reported as “inactive”. With `O=[As](O)(c1ccccc1)c1ccc(O)cc1` the outcome was “inactive”. With `O=C(Nc1cc([As](=O)(O)O)ccc1O)c1ccccc1` the outcome was “inactive”. For `CCOC(=O)c1ccc(NP(C)(=O)Oc2ccc(Cl)cc2)cc1` (stereo unspecified), the outcome was “inactive”. With `CP(=O)(OC12CC3CC(CC(C3)C1)C2)OC12CC3CC(CC(C3)C1)C2` the outcome was “inactive”. For `Nc1ccc2c(ccc3cccnc32)n1.O=[N+]([O-])c1cc([N+](=O)[O-])c(O)c([N+](=O)[O-])c1`, the outcome was “inactive”. For `O=[N+]([O-])c1cccc(NC2=NCC(CBr)S2)c1` (stereo unspecified), the outcome was “inactive”. In the case of `O=C(O)CNc1ccc([As](=O)(O)O)cc1`, the outcome is reported as “inactive”. In the case of `CC(C)(C)C(=O)NC(Sc1ccncn1)C(Cl)(Cl)Cl` (stereo unspecified), the outcome is reported as “inactive”. For `O=[N+]([O-])c1ncn(CCn2ncnc2[N+](=O)[O-])n1`, the outcome was “inactive”. With `O=C(OCCCN1CCCC1)C(O)(c1ccccc1)C1CCCCC1` (stereo unspecified) the outcome was “inactive”. With `CC(=O)N1C2C3N(C(C)=O)C1C1N(C(C)=O)C(C(N1C(C)=O)N3C(C)=O)N2C(C)=O` the outcome was “inactive”. With `O=[N+]([O-])c1cccc2n[nH]nc12` the outcome was “inactive”. In the case of `COc1ccccc1OP(C)(=O)Nc1c(C)n(C)n(-c2ccccc2)c1=O` (stereo unspecified), the outcome is reported as “inactive”. With `CCc1ccc(OP(C)(=O)Nc2cccnc2)cc1` (stereo unspecified) the outcome was “inactive”. `O=[N+]([O-])c1cc([N+](=O)[O-])c(CCNc2ccccc2)c([N+](=O)[O-])c1` was tested, and the outcome was “inactive”. With `CCc1nc2c(n1)c1c(non1O)c1c2no[n+]1[O-]` the outcome was “inactive”. In the case of `CP(=O)(Oc1ccccc1)N1CCOC1=O` (stereo unspecified), the outcome is reported as “inactive”. For `Cc1ccc(NP(=O)(Oc2ccccc2)Oc2ccccc2)nc1`, the outcome was “inactive”. With `COc1ccc(OP(C)(=O)Nc2ccc(Br)cc2)cc1` (stereo unspecified) the outcome was “inactive”. For `COc1ccc(C2=NCC(CBr)S2)cc1` (stereo unspecified), the outcome was “inactive”. `CCN(CC)CC(O)COC(=O)C(O)(c1ccccc1)C1CCCCC1` (stereo unspecified) was tested, and the outcome was “inactive”. With `CN(C)C(=O)OCCc1n(C)cc[n+]1C` the outcome was “inactive”. `CC(C)=N/N=C(\N)N[N+](=O)[O-]` was tested, and the outcome was “inactive”. `CN(C)C(=O)c1c([N+](=O)[O-])cc([N+](=O)[O-])cc1[N+](=O)[O-]` was tested, and the outcome was “inactive”. With `CC1CCN(C(=O)Oc2c(Cl)cc(Cl)c3cccnc23)CC1` the outcome was “inactive”. `C[N+]1=C2C=CC=CC=C2SC12C([N+](=O)[O-])=CC([N+](=O)[O-])=C[C-]2[N+](=O)[O-]` (stereo unspecified) was tested, and the outcome was “inactive”. For `COc1ccccc1OP(C)(=O)Nc1ccccc1Br` (stereo unspecified), the outcome was “inactive”. In the case of `Nc1ccc([As](=O)(O)c2ccc(N)cc2)cc1`, the outcome is reported as “inactive”. For `CC(C)(C)c1ccc(OP(C)(=O)O)cc1`, the outcome was “inactive”. With `CP(=O)(Nc1ccc(Cl)cc1)Oc1ccc(F)cc1` (stereo unspecified) the outcome was “inactive”. `Cc1ccc(OP(=O)(Nc2nccs2)Oc2ccc(C)cc2)cc1` was tested, and the outcome was “inactive”. With `COc1ccccc1OP(=O)(Nc1ccc(C)cn1)Oc1ccccc1OC` the outcome was “inactive”. In the case of `COc1ccc(OP(C)(=O)Nc2ccccn2)cc1` (stereo unspecified), the outcome is reported as “inactive”. `CN1CCCC(OC(=O)C(c2ccccc2)c2ccccc2)C1` (stereo unspecified) was tested, and the outcome was “inactive”. In the case of `CN(C)CCOC(=O)C(O)(c1ccccc1)C1CCCC1` (stereo unspecified), the outcome is reported as “inactive”. With `Clc1ccc(Cl)c(NC2=NCC(CBr)S2)c1` (stereo unspecified) the outcome was “inactive”. With `NC(=O)c1cc([N+](=O)[O-])cc([N+](=O)[O-])c1N` the outcome was “inactive”. With `Cc1ccc(N/C(=N/P(=O)(N2CCOCC2)N2CCOCC2)N2CCOCC2)cc1` the outcome was “inactive”. In the case of `COc1ccccc1OP(C)(=O)Nc1ccc(Br)cc1` (stereo unspecified), the outcome is reported as “inactive”. In the case of `COc1ccccc1OP(C)(=O)Nc1ccc(C)cc1C` (stereo unspecified), the outcome is reported as “inactive”. In the case of `CP(=O)(Nc1ccccn1)Oc1ccccc1` (stereo unspecified), the outcome is reported as “inactive”. In the case of `CCc1ccc(OP(C)(=O)O)cc1`, the outcome is reported as “inactive”. For `Nc1cc(N)c2nonc2c1[N+](=O)[O-]`, the outcome was “inactive”. In the case of `Cc1c(NP(C)(=O)Oc2ccc(C(C)C)cc2)c(=O)n(-c2ccccc2)n1C` (stereo unspecified), the outcome is reported as “inactive”. `O=[N+]([O-])c1cc([N+](=O)[O-])c(Nc2ccccn2)c([N+](=O)[O-])c1` was tested, and the outcome was “inactive”. With `CC(C)CC(=O)NC(Sc1ccc(Cl)cc1)C(Cl)(Cl)Cl` (stereo unspecified) the outcome was “inactive”. `O=C(NC(Sc1ccncn1)C(Cl)(Cl)Cl)c1ccccc1` (stereo unspecified) was tested, and the outcome was “inactive”. `Cc1c2non([O-])c-2c(C)[n+](=O)[n+]1[O-]` was tested, and the outcome was “inactive”. For `Oc1ccccc1CNc1ccccn1`, the outcome was “inactive”. With `COc1ccccc1OP(C)(=O)Nc1ccc(C)c(C)c1` (stereo unspecified) the outcome was “inactive”. In the case of `CN(C(=O)Cc1ccc(Cl)c(Cl)c1)[C@H]1CCCC[C@@H]1N1CCCC1`, the outcome is reported as “inactive”. In the case of `Cc1ccc(NP(=O)(Oc2ccccc2F)Oc2ccccc2F)nc1`, the outcome is reported as “inactive”. For `Cc1cc(SC(NC(=O)c2ccc(F)cc2)C(Cl)(Cl)Cl)ncn1` (stereo unspecified), the outcome was “inactive”. For `CCOP(=O)(Nc1ccccc1)OCC`, the outcome was “inactive”. `COc1ccc(OP(C)(=O)Nc2ccccc2Br)cc1` (stereo unspecified) was tested, and the outcome was “inactive”. With `CC(=O)Nc1ccc([As](=O)(O)O)cc1` the outcome was “inactive”. For `O=C(O)c1ccccc1[As](=O)(O)O`, the outcome was “inactive”. For `O=P(Nc1nc2ccc(Cl)cc2s1)(c1ccccc1)c1ccccc1`, the outcome was “inactive”. For `Cc1cc(C)cc(OP(C)(=O)Nc2cccc(C(F)(F)F)c2)c1` (stereo unspecified), the outcome was “inactive”. `CCN(N=Nc1nonc1N)c1nonc1N` was tested, and the outcome was “inactive”. With `CP(=O)(Nc1ccc(Cl)cc1Cl)Oc1ccccc1` (stereo unspecified) the outcome was “inactive”. In the case of `CP(=O)(OCCOc1ccccc1)OCCOc1ccccc1`, the outcome is reported as “inactive”. `Nc1cccc2ccc([As](=O)(O)O)cc12` was tested, and the outcome was “inactive”. In the case of `Cc1nc2ccc3ccccc3c2o1.O=[N+]([O-])c1cc([N+](=O)[O-])c(O)c([N+](=O)[O-])c1`, the outcome is reported as “inactive”. `O=[N+]([O-])c1cc([N+](=O)[O-])c(CCN2CCOCC2)c([N+](=O)[O-])c1` was tested, and the outcome was “inactive”.
